Laboratory results: PubChem BioAssay AID1359 (The Scripps Research Institute Molecular Screening Center, 2008)
The list shows a part of the results, in another mix than the full data. Active and inactive are the calls of the source. No stated cut-off is given here; in the data, active means activation above about 27%; inactive means the rest.

By UniProt entry, the sequences of proteins in these tests, tags left out.
UniProt P49146, whole entry: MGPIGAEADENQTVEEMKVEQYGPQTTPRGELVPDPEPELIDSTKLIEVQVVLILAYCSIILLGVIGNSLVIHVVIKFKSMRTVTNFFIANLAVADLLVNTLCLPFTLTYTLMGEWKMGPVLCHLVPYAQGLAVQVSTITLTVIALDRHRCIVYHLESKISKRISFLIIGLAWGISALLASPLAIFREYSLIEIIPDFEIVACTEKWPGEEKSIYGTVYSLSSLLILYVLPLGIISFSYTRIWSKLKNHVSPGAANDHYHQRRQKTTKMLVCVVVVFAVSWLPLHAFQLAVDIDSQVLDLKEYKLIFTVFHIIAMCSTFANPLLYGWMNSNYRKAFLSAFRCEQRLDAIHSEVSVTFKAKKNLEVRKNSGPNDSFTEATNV

target: Neuropeptide Y receptor type 2 (Homo sapiens) (UniProt P49146); test: NPY-Y2 potentiators or agonists, primary screen, cell-based (AID 1359); settings: cells expressing NPY-Y2, potentiator/agonist read-out; at 3.6 µM; hits give high values;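 further: cells stimulated with NPY near EC25 plus isoproterenol at EC100; 0% = vehicle plus submaximal agonist and 100% = vehicle plus saturating agonist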

| SMILES | activation |
| --- | --- |
| O=[N+]([O-])c1cc([N+](=O)[O-])c(Nc2nnnn2CCO)c([N+](=O)[O-])c1 | inactive: -7.28% |
| CCOC(=O)C(CC)C1=NC(C)(C)Cc2ccccc21.O=[N+]([O-])c1cc([N+](=O)[O-])c(O)c([N+](=O)[O-])c1 (stereo not drawn) | inactive: -28.5% |
| COc1ccccc1OP(C)(=O)Nc1c(C)cccc1C (stereo not drawn) | inactive: -8.75% |
| CN1CCCCC1COC(=O)C1(O)c2ccccc2CCc2ccccc21 (stereo not drawn) | inactive: -13.2% |
| CCCOc1ccc(NP(C)(=O)Oc2ccc(Cl)cc2)cc1 (stereo not drawn) | inactive: -17.9% |
| CP(=O)(Nc1ccc(SC(F)(F)F)cc1)Oc1ccccc1 (stereo not drawn) | inactive: 14.8% |
| O=[N+]([O-])c1cc([N+](=O)[O-])c(-n2nnc3ccccc32)c([N+](=O)[O-])c1 | inactive: -7.07% |
| Cc1nc2ccc3ccccc3c2s1.O=[N+]([O-])c1cc([N+](=O)[O-])c(O)c([N+](=O)[O-])c1 | inactive: -7.43% |
| COc1ccccc1OP(C)(=O)Nc1cccc(Br)c1 (stereo not drawn) | inactive: -3.28% |
| CCOC(=O)c1ccc(NP(C)(=O)Oc2cc(C)cc(C)c2)cc1 (stereo not drawn) | inactive: -13% |
| Cc1cc(C)cc(OP(C)(=O)Nc2ccc(C)cc2C)c1 (stereo not drawn) | inactive: -10.4% |
| Cc1ccc(C)c(NP(C)(=O)Oc2ccccc2)c1 (stereo not drawn) | inactive: 2.14% |
| Cc1cc(C)cc(OP(C)(=O)Nc2ccccn2)c1 (stereo not drawn) | inactive: -2.19% |
| CP(=O)(Nc1cccc(Br)c1)Oc1ccccc1 (stereo not drawn) | inactive: -0.82% |
| O=C(O)c1cccc(Nc2c([N+](=O)[O-])cc([N+](=O)[O-])cc2[N+](=O)[O-])c1 | inactive: 4.23% |
| CC1=NCCc2c1[nH]c1ccccc21.O=[N+]([O-])c1cc([N+](=O)[O-])c(O)c([N+](=O)[O-])c1 | inactive: -0.85% |
| O=[N+]([O-])c1ccc2c(c1)C=Nc1ccccc1O2 | inactive: 17.4% |
| CC(C)(C)c1ccc(OP(C)(=O)Nc2ccc(SC(F)(F)F)cc2)cc1 (stereo not drawn) | inactive: 1.65% |
| Cc1cccc(C)c1OP(C)(N)=O (stereo not drawn) | inactive: -22.2% |
| COc1ccccc1OP(C)(=O)Nc1ccc(C)cc1 (stereo not drawn) | inactive: 6.5% |
| Cc1ccc(NP(C)(=O)Oc2ccccc2)c(C)c1 (stereo not drawn) | inactive: 6.66% |

| SMILES | activation |
| --- | --- |
| CCOC(=O)c1ccc(NP(C)(=O)Oc2ccccc2)cc1 (stereo not drawn) | inactive: 6.79% |
| Cc1cc(C)cc(OP(C)(N)=O)c1 (stereo not drawn) | inactive: -5.86% |
| COc1ccccc1OP(C)(=O)Nc1cc(Cl)ccc1C (stereo not drawn) | inactive: 1.44% |
| COc1ccc(OP(C)(=O)Nc2cccc(F)c2)cc1 (stereo not drawn) | inactive: 1.44% |
| CCN(CC)CCCOC(=O)C(O)(c1ccccc1)c1ccccc1 | inactive: -9.49% |
| Cc1cccc(C)c1OP(C)(=O)Nc1ccc(SC(F)(F)F)cc1 (stereo not drawn) | inactive: 7.27% |
| CP(=O)(Nc1ccc(SC(F)(F)F)cc1)Oc1ccc(Cl)cc1 (stereo not drawn) | inactive: -1.58% |
| CP(=O)(Oc1ccccc1)OC(c1ccccc1)C(F)(F)F (stereo not drawn) | inactive: 5.57% |
| CP(=O)(NC(=O)Nc1ccccc1)Oc1ccccc1 (stereo not drawn) | inactive: -4.87% |
| CCc1ccc(OP(C)(=O)N2CCN(c3ccc([N+](=O)[O-])cc3)CC2)cc1 (stereo not drawn) | inactive: -5.05% |
| Cc1cc(C)cc(OP(C)(=O)Nc2ccc(SC(F)(F)F)cc2)c1 (stereo not drawn) | inactive: -10.2% |
| CCOC(=O)c1ccc(NP(C)(=O)Oc2ccc(OC)cc2)cc1 (stereo not drawn) | inactive: 9.42% |
| CCOP(C)(=S)SCC(=O)NC(C)C(=O)O (stereo not drawn) | inactive: 2.68% |
| CP(=O)(Nc1ccccn1)Oc1ccc(Cl)cc1 (stereo not drawn) | inactive: -8.38% |
| CP(=S)(Nn1cnnc1)Oc1ccccc1 (stereo not drawn) | inactive: -4.08% |
| CP(=O)(Nc1ccccc1Br)Oc1ccccc1 (stereo not drawn) | inactive: 8.58% |
| COc1ccccc1OP(C)(=O)Nc1ccccc1 (stereo not drawn) | inactive: -0.14% |
| CCOC(=O)c1ccc(NP(C)(=O)Oc2ccc(Cl)cc2)cc1 (stereo not drawn) | inactive: 5.21% |
| CP(=O)(OC12CC3CC(CC(C3)C1)C2)OC12CC3CC(CC(C3)C1)C2 | inactive: 5.5% |
| CCN(CC)CC(O)COC(=O)C(O)(c1ccccc1)C1CCCCC1 (stereo not drawn) | inactive: 4.04% |
| COc1ccc(OP(C)(=O)Nc2ccc(Br)cc2)cc1 (stereo not drawn) | inactive: -2.5% |

| SMILES | activation |
| --- | --- |
| COc1ccccc1OP(C)(=O)Nc1c(C)n(C)n(-c2ccccc2)c1=O (stereo not drawn) | inactive: -14.1% |
| O=C(OCCCN1CCCC1)C(O)(c1ccccc1)C1CCCCC1 (stereo not drawn) | inactive: -15.8% |
| CP(=O)(Oc1ccccc1)N1CCOC1=O (stereo not drawn) | inactive: -0.07% |
| CCc1ccc(OP(C)(=O)Nc2cccnc2)cc1 (stereo not drawn) | inactive: -14.9% |
| COc1ccccc1OP(C)(=O)Nc1ccccc1Br (stereo not drawn) | inactive: 2.46% |
| CC(C)(C)c1ccc(OP(C)(=O)O)cc1 | inactive: -18.7% |
| CP(=O)(Nc1ccc(Cl)cc1)Oc1ccc(F)cc1 (stereo not drawn) | inactive: 3.15% |
| CN(C)C(=O)c1c([N+](=O)[O-])cc([N+](=O)[O-])cc1[N+](=O)[O-] | inactive: 2.88% |
| COc1ccccc1OP(C)(=O)Nc1ccc(Br)cc1 (stereo not drawn) | inactive: -2.62% |
| COc1ccc(OP(C)(=O)Nc2ccccn2)cc1 (stereo not drawn) | inactive: 5.71% |
| CN(C)CCOC(=O)C(O)(c1ccccc1)C1CCCC1 (stereo not drawn) | inactive: 1.8% |
| Cc1c(NP(C)(=O)Oc2ccc(C(C)C)cc2)c(=O)n(-c2ccccc2)n1C (stereo not drawn) | inactive: -3.77% |
| O=[N+]([O-])c1cc([N+](=O)[O-])c(Nc2ccccn2)c([N+](=O)[O-])c1 | inactive: 0.58% |
| CP(=O)(Nc1ccccn1)Oc1ccccc1 (stereo not drawn) | inactive: 24.5% |
| COc1ccccc1OP(C)(=O)Nc1ccc(C)cc1C (stereo not drawn) | inactive: -1.64% |
| CCc1ccc(OP(C)(=O)O)cc1 | inactive: -3.47% |
| Cc1cc(C)cc(OP(C)(=O)Nc2cccc(C(F)(F)F)c2)c1 (stereo not drawn) | inactive: 6.88% |
| COc1ccccc1OP(C)(=O)Nc1ccc(C)c(C)c1 (stereo not drawn) | inactive: 11.5% |
| COc1ccc(OP(C)(=O)Nc2ccccc2Br)cc1 (stereo not drawn) | inactive: 3.1% |
| Cc1nc2ccc3ccccc3c2o1.O=[N+]([O-])c1cc([N+](=O)[O-])c(O)c([N+](=O)[O-])c1 | inactive: 5.03% |
| CP(=O)(Nc1ccc(Cl)cc1Cl)Oc1ccccc1 (stereo not drawn) | inactive: -16.6% |

| SMILES | activation |
| --- | --- |
| CP(=O)(OCCOc1ccccc1)OCCOc1ccccc1 | inactive: -10.3% |
| CCOC(=O)c1ccc(NP(C)(=O)Oc2ccc(F)cc2)cc1 (stereo not drawn) | inactive: 4.96% |
| COc1ccc(OP(C)(=O)Nc2ccc(SC(F)(F)F)cc2)cc1 (stereo not drawn) | inactive: 17.7% |
| CCN(CC)CCCOC(=O)C(O)(c1ccccc1)C1CCCCC1 (stereo not drawn) | inactive: -12.1% |
| CP(=O)(Nc1ccccc1)Oc1ccc(F)cc1 (stereo not drawn) | inactive: 15.7% |
| CCCCCOc1ccc(NP(C)(=O)Oc2ccc(Cl)cc2Cl)cc1 (stereo not drawn) | inactive: -39.9% |
| CP(=O)(Nc1ccccc1F)Oc1ccccc1 (stereo not drawn) | inactive: 6.54% |
| CC(C)c1ccc(OP(C)(=O)Nc2ccc(SC(F)(F)F)cc2)cc1 (stereo not drawn) | inactive: -2.44% |
| O=C(OC1CN2CCC1CC2)c1ccc([N+](=O)[O-])cc1 (stereo not drawn) | inactive: -6.54% |
| O=C(OCCN1CCN(CCOCc2ccccc2)CC1)C(O)(c1ccccc1)c1ccccc1 | inactive: -0.75% |
| CP(=O)(Nc1ccc(SC(F)(F)F)cc1)Oc1ccc(F)cc1 (stereo not drawn) | inactive: 18% |
| CCOP(C)(=S)SCC(=O)NC(C)(CC)C(=O)O (stereo not drawn) | inactive: 15% |
| CP(=O)(Nc1ccc2c(c1)OCCO2)Oc1ccccc1 (stereo not drawn) | inactive: -7.06% |
| Cc1ccccc1NP(C)(=O)Nc1ccccc1C | inactive: 16.4% |
| COc1ccc(OP(C)(=O)Nc2cccc(Br)c2)cc1 (stereo not drawn) | inactive: 9.19% |
| CN(C)CCOC(=O)C(O)(c1ccccc1)C1CCCCC1 (stereo not drawn) | inactive: -18.4% |
| COc1ccc(NP(C)(=O)Oc2ccccc2OC)cc1 (stereo not drawn) | inactive: 6.18% |
| O=[N+]([O-])c1ccc(OP2(=O)COCCO2)cc1 (stereo not drawn) | inactive: -1.61% |
| Cc1cc(-c2cccc3ccccc23)c(C)cn1.O=[N+]([O-])c1cc([N+](=O)[O-])c(O)c([N+](=O)[O-])c1 | inactive: -16.1% |
| O=[N+]([O-])c1cc([N+](=O)[O-])c(NCC2CCS(=O)(=O)C2)c([N+](=O)[O-])c1 (stereo not drawn) | inactive: -4.58% |
